Amino acid sequences for entries named in this document (tags omitted). A change or cut given only in a name is not applied to a line headed by its entry. Residues count along the entry.
UniProt P35396, 210-438 limits assumed: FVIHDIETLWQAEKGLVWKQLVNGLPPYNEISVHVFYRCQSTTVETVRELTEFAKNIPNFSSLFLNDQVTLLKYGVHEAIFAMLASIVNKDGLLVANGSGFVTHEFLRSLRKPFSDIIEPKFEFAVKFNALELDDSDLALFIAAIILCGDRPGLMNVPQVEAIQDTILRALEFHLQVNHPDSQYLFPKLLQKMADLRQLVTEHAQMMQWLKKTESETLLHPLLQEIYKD

According to paper PMC1940322, “The Effect of PPARα, PPARδ, PPARγ, and PPARpan Agonists on Body Weight, Body Mass, and Serum Lipid Profiles in Diet-Induced Obese AKR/J Mice” (PPAR Research, 2007):

Target: murine PPARδ (Mus musculus, UniProt P35396)
Test: PPAR-GAL4 transient transfection transactivation assay (SPAP reporter) in CV-1 cells, PPARδ
Type: cell-based

With `CCCCCCCN(CCc1ccc(SC(C)(C)C(=O)O)cc1)C(=O)Nc1ccc(F)cc1F` [GW9578] the “mPPARδ %Max” value (maximal activation vs reference comparator) was 76% and the EC50 (read-out: mPPARδ, murine receptor activation EC50, CV-1 cells, GAL4 chimera) was 2340 nM.
